A word on the IC50: it is the concentration that inhibits the measured activity by half. Low readings indicate greater potency in that assay, high ones weaker potency in that assay.

Amino acid sequences for entries named in this document (tags omitted).
UniProt P25103, whole entry: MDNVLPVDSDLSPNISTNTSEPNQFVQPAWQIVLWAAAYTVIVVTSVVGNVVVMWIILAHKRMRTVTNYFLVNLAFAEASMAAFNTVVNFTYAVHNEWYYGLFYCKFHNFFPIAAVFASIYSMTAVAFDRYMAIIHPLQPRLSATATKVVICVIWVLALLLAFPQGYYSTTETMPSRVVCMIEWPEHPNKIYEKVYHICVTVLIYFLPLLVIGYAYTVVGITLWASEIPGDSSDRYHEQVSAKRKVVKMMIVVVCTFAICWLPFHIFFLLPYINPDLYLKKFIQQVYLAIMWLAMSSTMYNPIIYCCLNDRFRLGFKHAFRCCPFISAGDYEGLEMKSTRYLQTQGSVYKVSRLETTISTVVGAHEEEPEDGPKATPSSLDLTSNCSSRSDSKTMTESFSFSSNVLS

The test deals with Substance-P receptor (Homo sapiens, UniProt P25103). Kind of test: Binding affinity was measured against the Tachykinin receptor 1 in CHO-expressed hNK1 using [125I]SP.
In turn, `Cc1cc(C)cc(CO[C@@H]2/C(=C/c3ccccc3)N3CCC2CC3)c1` showed an IC50 of 8.13 µM.
The compound `Cc1cc(C)cc(CO[C@@H]2/C(=C\c3ccccc3)N3CCC2CC3)c1` had an IC50 of 0.129 µM.
The result for `N[C@H](COCc1cc(C(F)(F)F)cc(C(F)(F)F)c1)C(c1ccccc1)c1ccccc1` reads 0.0107 µM.
As for `CN(C)[C@H](COCc1cc(C(F)(F)F)cc(C(F)(F)F)c1)C(c1ccccc1)c1ccccc1`, the IC50 was 0.002 µM.

These data come from ChEMBL document CHEMBL1131095, “Derivation of a three-dimensional pharmacophore model of substance P antagonists bound to the neurokinin-1 receptor” (J Med Chem, 1998).
